# From patent publication US20220175771A1, “CANCER TREATMENT MODALITIES” (priority 2017, published 2022)
# Tested on: SMARCA2/SMARCA4 dual-loss lung cancer cell lines
# Conditions: in vitro, 14 days of treatment; compared with lung cancer cell lines with other SWI/SNF aberrations
smiles,measurement,value
"CCN(c1cc(-c2ccc(CN3CCOCC3)cc2)cc(C(=O)NCc2c(C)cc(C)[nH]c2=O)c1C)C1CCOCC1 [Compound 44, tazemetostat]",sensitivity to EZH2 inhibition (cell proliferation),more sensitive
